# Literature values in patent publication US6099822A, “Imaging methods and compositions” (priority 1998, dated 2000).
# System: acute cerebral injury
# Settings: in vivo; cited from earlier work
smiles,measurement,value
OC[C@H]1OC(O)[C@H]([18F])[C@@H](O)[C@@H]1O (stereo partly shown) [F-18-FDG],Concentration in the center of the cerebral injury,decreased in this region
